Reference: PMC3063489 (Molecular and biochemical parasitology, 2011)

By UniProt entry, the sequences of proteins in these tests, tags left out.
UniProt P23975, whole entry: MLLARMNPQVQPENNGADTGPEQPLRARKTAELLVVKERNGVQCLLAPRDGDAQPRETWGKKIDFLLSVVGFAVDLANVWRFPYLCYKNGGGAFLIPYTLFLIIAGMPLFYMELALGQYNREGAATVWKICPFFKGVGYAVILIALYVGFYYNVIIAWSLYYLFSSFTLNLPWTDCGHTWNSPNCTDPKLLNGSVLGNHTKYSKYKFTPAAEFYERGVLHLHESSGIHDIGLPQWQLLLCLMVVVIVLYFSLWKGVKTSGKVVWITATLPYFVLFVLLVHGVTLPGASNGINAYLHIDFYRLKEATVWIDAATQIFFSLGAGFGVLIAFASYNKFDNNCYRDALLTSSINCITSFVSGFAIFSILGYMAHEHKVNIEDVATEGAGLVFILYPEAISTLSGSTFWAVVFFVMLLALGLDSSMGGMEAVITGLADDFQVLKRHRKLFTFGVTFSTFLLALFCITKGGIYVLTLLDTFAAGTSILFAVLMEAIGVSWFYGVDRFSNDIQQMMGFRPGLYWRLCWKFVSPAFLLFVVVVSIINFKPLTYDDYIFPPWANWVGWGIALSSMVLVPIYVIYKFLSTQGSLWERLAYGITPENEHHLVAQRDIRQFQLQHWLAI

Molecular target: hNET (Homo sapiens, UniProt P23975)
Type: cell-based

IC50: 9.21 ± 1.19 µM
SMILES: CC(NC(C)(C)C)C(=O)c1cccc(Cl)c1 (stereo not shown) [Bupropion]
